The values that follow come from PubChem BioAssay AID1458 (National Center for Advancing Translational Sciences (NCATS), 2008).

The entries are a selection whose mix differs from that of the whole data set. Records with an inconclusive call do not appear. The source made the active and inactive calls. Calls come from the whole dose curve; as a rule, active = well fitted activation curve with a large enough effect; inconclusive = small, poorly fitted or top-dose-only effect; inactive = no such curve, though single readings can be large or run the other way.

This test is described as follows: qHTS Assay for Enhancers of SMN2 Splice Variant Expression. Note: % of control where 0% means no effect; nearly all actives have a fitted effect of over 55% in size. The note with it: HEK293 SMN2-luciferase splicing reporter, luminescence, 30-36 h; at 46.1 µM (top of the series) unless noted.
With `O=P1(Nc2nc3ccc(Cl)cc3s2)COc2ccccc2O1` (stereo not drawn), the activity change, positive = activation is inactive: 40%.

With `CC(C)(C)C(=O)NC(Sc1ccccc1)C(Cl)(Cl)Cl` (stereo not drawn), the activity change, positive = activation was inactive: -10.6%.

As for `CC(=O)Nc1ccc(Oc2c([N+](=O)[O-])cc([N+](=O)[O-])cc2[N+](=O)[O-])cc1`, the activity change, positive = activation was inactive: 17.5%.

For the compound `CCOC(=O)NC(Sc1ccccc1)C(Cl)(Cl)Cl` (stereo not drawn), the activity change, positive = activation was inactive: -1.38%.

Turning to `O=C(NC1CCS(=O)(=O)C1)NP(=S)(Oc1ccccc1)Oc1ccccc1` (stereo not drawn), the activity change, positive = activation was inactive: 12.4%.

Consider `CCNC(=S)/N=C(\N)N[N+](=O)[O-]`, for which the activity change, positive = activation is inactive: -2.59%.

On to `CCC(=O)N1C2C3N(C(=O)CC)C1C1N(C(=O)CC)C(C(N1C(=O)CC)N3C(=O)CC)N2C(=O)CC`, for which the activity change, positive = activation was inactive: 24.2%.

For the compound `CN(C(=O)Cc1ccc(Cl)c(Cl)c1)[C@@H]1CCCC[C@@H]1N1CCCC1`, the activity change, positive = activation is inactive: -12.1%.

In the case of `CC(=O)NC(SC(=S)N(CC(C)C)CC(C)C)C(Cl)(Cl)Cl` (stereo not drawn), the activity change, positive = activation was inactive: -27.5%.

In the case of `Cc1ccc(OP(=O)(Nc2ccccn2)Oc2ccc(C)cc2)cc1`, the activity change, positive = activation is inactive: -22.4%.

For the compound `COC(=O)c1cc2c(s1)N=C(c1ccccc1)N(C)P2(=O)N1CCOCC1` (stereo not drawn), the activity change, positive = activation was inactive: -9.46%.

Take `O=P(Nc1ccccn1)(c1ccc(Br)cc1)c1ccc(Br)cc1`: the activity change, positive = activation is inactive: -8.37%.

For `CN(C(=O)Cc1ccccc1)[C@H]1CC[C@@]2(CCCO2)C[C@@H]1N1CCCC1`, the activity change, positive = activation was inactive: -3.52%.

Regarding `[N-]=[N+]=Nc1ccc([As](=O)(O)O)cc1`, the activity change, positive = activation is inactive: -8.49% [at 9.22 µM].

For `Cc1cc([N+](=O)[O-])cc([N+](=O)[O-])c1O`, the activity change, positive = activation was inactive: -13.9%.

For the compound `CC(=O)NC(SC(=S)N(C)C)C(Cl)(Cl)Cl` (stereo not drawn), the activity change, positive = activation is inactive: -3.02%.

On to `C(Cc1nn[nH]n1)Cc1nn[nH]n1`, for which the activity change, positive = activation is inactive: 1.11%.

For `O=P(Nc1nccs1)(c1ccccc1)c1ccccc1`, the activity change, positive = activation is inactive: 9.85%.

For `c1nnnn1CCn1cnnn1`, the activity change, positive = activation was inactive: 8.65%.

Consider `CN1CCC[C@H](OC(=O)C(c2ccccc2)c2ccccc2)C1`, for which the activity change, positive = activation was inactive: -7.05% [at 9.22 µM].

Consider `C[C@@H](O)COc1ccc([As](=O)(O)O)cc1N`, for which the activity change, positive = activation is inactive: -6.2% [at 9.22 µM].

Take `COc1ccc(C2=NCC(CBr)S2)cc1` (stereo not drawn): the activity change, positive = activation is inactive: 13.9%.

In the case of `O=[N+]([O-])c1cc([N+](=O)[O-])c(CCNc2ccccc2)c([N+](=O)[O-])c1`, the activity change, positive = activation was inactive: -22.9%.

Consider `Cc1ccc(NP(=O)(Oc2ccccc2)Oc2ccccc2)nc1`, for which the activity change, positive = activation is inactive: 5.51%.

For the compound `CC(=O)N1C2C3N(C(C)=O)C1C1N(C(C)=O)C(C(N1C(C)=O)N3C(C)=O)N2C(C)=O`, the activity change, positive = activation was inactive: 12.6%.

Regarding `O=[N+]([O-])c1cccc2n[nH]nc12`, the activity change, positive = activation is inactive: -5.58%.

Consider `CCN(/C(=N/P(=O)(N1CCOCC1)N1CCOCC1)N1CCOCC1)c1ccc(OC)cc1`, for which the activity change, positive = activation is inactive: -2.59%.

For the compound `CC1CCN(C(=O)Oc2c(Cl)cc(Cl)c3cccnc23)CC1`, the activity change, positive = activation is inactive: -1.02%.

As to `CC(=O)C1=CCCC2CCC1N2` (stereo not drawn), the activity change, positive = activation is inactive: -1.75%.

As to `O=C(CO)Nc1ccc([As](=O)(O)O)cc1`, the activity change, positive = activation is inactive: -13% [at 9.22 µM].

As to `CN(C)C(=O)OCCc1n(C)cc[n+]1C`, the activity change, positive = activation is inactive: 9.46%.

`CC(C)=N/N=C(\N)N[N+](=O)[O-]`: the activity change, positive = activation was inactive: -7.19%.

In the case of `O=[N+]([O-])c1ncn(CCn2ncnc2[N+](=O)[O-])n1`, the activity change, positive = activation is inactive: 5.79%.

Regarding `CCOP(=O)(Nc1ccccc1)OCC`, the activity change, positive = activation was inactive: 7.98%.

Take `Cc1cc(SC(NC(=O)c2ccc(F)cc2)C(Cl)(Cl)Cl)ncn1` (stereo not drawn): the activity change, positive = activation was inactive: 18.7%.

As for `[N-]=[N+]=NCC(O)CN=[N+]=[N-]` (stereo not drawn), the activity change, positive = activation is inactive: -8.66% [at 9.22 µM].

For `C(Cc1nn[nH]n1)c1nn[nH]n1`, the activity change, positive = activation is inactive: -22.6% [at 9.22 µM].

For the compound `CCN(N=Nc1nonc1N)c1nonc1N`, the activity change, positive = activation was inactive: 6.9%.

With `Cc1ccc(N/C(=N/P(=O)(N2CCOCC2)N2CCOCC2)N2CCOCC2)cc1`, the activity change, positive = activation is inactive: 15.9%.

With `NC(=O)c1cc([N+](=O)[O-])cc([N+](=O)[O-])c1N`, the activity change, positive = activation is inactive: 2.69%.

Consider `CN1CCCC(OC(=O)C(c2ccccc2)c2ccccc2)C1` (stereo not drawn), for which the activity change, positive = activation is inactive: -3.14%.

Regarding `O=[N+]([O-])c1ccc(C[As](=O)(O)O)cc1`, the activity change, positive = activation was inactive: -9% [at 9.22 µM].

Turning to `Cc1c2non([O-])c-2c(C)[n+](=O)[n+]1[O-]`, the activity change, positive = activation is inactive: -11.7%.

`Oc1ccccc1CNc1ccccn1`: the activity change, positive = activation was inactive: 10.6%.

Consider `CC(C)CC(=O)NC(Sc1ccc(Cl)cc1)C(Cl)(Cl)Cl` (stereo not drawn), for which the activity change, positive = activation was inactive: -4.17%.

Take `NCC[C@@H](N)CSP(=O)(O)O`: the activity change, positive = activation is inactive: -13.1% [at 9.22 µM].

For `Cc1c2c(nc3ccccc13)SC(C(Cl)Cl)C2` (stereo not drawn), the activity change, positive = activation is inactive: 6.24%.

As for `Cc1cc(=O)[nH]c(N[N+](=O)[O-])n1`, the activity change, positive = activation was inactive: 6.51%.

For `O=C(OC1CN2CCC1CC2)C12CC3CC(CC(C3)C1)C2` (stereo not drawn), the activity change, positive = activation is inactive: -3.13%.

Take `NC(=O)Nc1cc([As](=O)(O)O)cc(I)c1O`: the activity change, positive = activation is inactive: -3.31% [at 9.22 µM].

`COc1ccc2nc(NP(=O)(c3ccccc3)c3ccccc3)sc2c1`: the activity change, positive = activation was inactive: 11.7%.

On to `O=[As]c1ccc(S(=O)(=O)NCCO)cc1` (stereo not drawn), for which the activity change, positive = activation is inactive: -7.43% [at 9.22 µM].

Consider `[N-]=[N+]=NCC(N)=O`, for which the activity change, positive = activation is inactive: -9.21% [at 9.22 µM].

In the case of `O=[N+]([O-])c1cc([N+](=O)[O-])c(-c2ccn[nH]2)s1`, the activity change, positive = activation was inactive: 9.34%.

On to `CCN(CC)C(=S)SC(NC=O)C(Cl)(Cl)Cl` (stereo not drawn), for which the activity change, positive = activation was inactive: -14.1%.

Take `CC(C)NC(=O)NP(=O)(Oc1ccccc1)Oc1ccccc1`: the activity change, positive = activation is inactive: 11.7%.

Regarding `Cc1cc(SC(NC(=O)c2ccccc2)C(Cl)(Cl)Cl)nc(C(C)C)n1` (stereo not drawn), the activity change, positive = activation was inactive: 6.33%.

On to `CN(N=O)C(=N)N[N+](=O)[O-]`, for which the activity change, positive = activation is inactive: 8.53%.

Take `Cc1cc(SC(NC=O)C(Cl)(Cl)Cl)ncn1` (stereo not drawn): the activity change, positive = activation was inactive: 2.27%.

For `O=P(Nc1ccccn1)(c1cccc2ccccc12)c1cccc2ccccc12`, the activity change, positive = activation is inactive: -7.39%.

As to `COP1(=S)c2c(C)nn(CCC#N)c2N=C(c2ccc(F)cc2)N1C` (stereo not drawn), the activity change, positive = activation was inactive: 29.4%.

Regarding `O=C(O)[C@@H](O)c1ccc([As](=O)(O)O)cc1`, the activity change, positive = activation was inactive: -0.514% [at 9.22 µM].

`O=C(COc1ccccc1)OC1CN2CCC1CC2` (stereo not drawn): the activity change, positive = activation was inactive: 3.12%.
